The structures appear in SMILES notation.

Holding throughout (conditions): 35 hours, absorbance 590 nm, n = 1; cells without values AUC < 50
For one assay, the system named is R. gilardii. In words: Biolog Phenotype Microarray PM1-2 growth on carbon sources. The format is cell-based, Roseomonas gilardii. The procedure: (§1) Using Phenotype Microarray (PM) panels (Biolog), the influence of 190 carbon sources on the growth of the potential probiotic species R. mucilaginosa, R. dentocariosa, R. gilardii, G. haemolysans, and common respiratory pathogens P. aeruginosa, and S. aureus was determined. PM1 and PM2 panels (Biolog) were inoculated according to the manufacturer's instructions. Growth curves were generated for 35 hours by measuring the absorbance at 590 nm using an EnVision (Perkin Elmer) plate reader.

The test system of a further assay is P. aeruginosa. Described as above. In kind it is cell-based, Pseudomonas aeruginosa. The procedure: as §1
Another assay concerns S. aureus. The format is cell-based, Staphylococcus aureus. The procedure:
as §1

As for `O=C(O)CCC(=O)C(=O)O` [α-Keto-Glutaric Acid], in the assay with R. gilardii, the “AUC of growth curve, R. gilardii” value is given as 160.6. Moreover, in the assay on P. aeruginosa, the “AUC of growth curve, P. aeruginosa” value is 555.1. Besides, the “AUC of growth curve, S. aureus” value with S. aureus stood at 755.7.
